# Assay results: patent US6774220B1, “Compounds having lectinic properties and their biological applications” (Association pour le Développement de la Biothérapie …, priority 1995, dated 2004)
# System: T (lympho) cells
# Assay: Stimulation over 24 hours of the synthesis of DNA in T (lympho) cells
# Assay type: cell-based
# Conditions: IL2 (100 u) +M
# Protocol: XI Stimulation over 24 hours of the synthesis of DNA in T (lympho) cells
# The SCL is excreted in the H-1 medium by PBMC over 24 hours maintained without serum.
substance,measurement,value
IL2: interleukin-2,"synthesis of DNA, EXP. N° 1","4,081 ± 341"
same,"synthesis of DNA, EXP. N° 2","11,354 ± 772"
